Protein sequences, listed by entry. Tags and fused reporters are not part of them. Lines headed by an entry give the natural chain unless they say otherwise; changes in a name come on top.
UniProt P17948: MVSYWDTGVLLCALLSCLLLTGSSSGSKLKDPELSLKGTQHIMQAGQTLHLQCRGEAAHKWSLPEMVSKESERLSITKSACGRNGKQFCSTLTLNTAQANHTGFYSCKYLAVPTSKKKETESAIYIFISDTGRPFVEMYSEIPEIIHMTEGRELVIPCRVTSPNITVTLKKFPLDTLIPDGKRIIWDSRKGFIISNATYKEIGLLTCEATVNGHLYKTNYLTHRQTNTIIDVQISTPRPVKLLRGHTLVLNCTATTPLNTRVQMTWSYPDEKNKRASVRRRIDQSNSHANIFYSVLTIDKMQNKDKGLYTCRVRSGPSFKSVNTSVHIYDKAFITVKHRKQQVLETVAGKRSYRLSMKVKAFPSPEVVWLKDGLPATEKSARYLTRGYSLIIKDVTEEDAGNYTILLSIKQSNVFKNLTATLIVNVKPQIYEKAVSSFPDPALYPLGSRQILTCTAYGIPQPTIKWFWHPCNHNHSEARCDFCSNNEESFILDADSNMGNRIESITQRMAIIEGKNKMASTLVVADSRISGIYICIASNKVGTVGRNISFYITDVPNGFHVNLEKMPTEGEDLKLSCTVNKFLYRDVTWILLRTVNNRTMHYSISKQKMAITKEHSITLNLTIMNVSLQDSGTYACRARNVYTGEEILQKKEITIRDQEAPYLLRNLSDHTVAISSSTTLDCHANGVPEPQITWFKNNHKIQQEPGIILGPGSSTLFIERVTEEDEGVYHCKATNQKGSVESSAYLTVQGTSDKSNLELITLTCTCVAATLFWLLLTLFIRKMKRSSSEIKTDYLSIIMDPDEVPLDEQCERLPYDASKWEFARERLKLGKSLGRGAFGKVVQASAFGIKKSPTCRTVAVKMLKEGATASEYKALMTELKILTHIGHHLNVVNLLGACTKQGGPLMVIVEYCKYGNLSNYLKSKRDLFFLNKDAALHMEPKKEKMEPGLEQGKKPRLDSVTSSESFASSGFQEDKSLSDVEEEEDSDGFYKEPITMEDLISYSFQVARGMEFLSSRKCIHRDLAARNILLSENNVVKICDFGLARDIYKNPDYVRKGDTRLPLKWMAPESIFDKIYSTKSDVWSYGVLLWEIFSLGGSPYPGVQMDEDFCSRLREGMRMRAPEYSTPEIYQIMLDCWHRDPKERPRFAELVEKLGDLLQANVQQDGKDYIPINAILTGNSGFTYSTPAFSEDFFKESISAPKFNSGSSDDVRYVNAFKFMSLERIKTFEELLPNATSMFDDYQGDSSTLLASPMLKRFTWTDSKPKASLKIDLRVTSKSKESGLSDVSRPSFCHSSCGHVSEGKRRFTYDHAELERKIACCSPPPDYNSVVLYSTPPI
UniProt P35916: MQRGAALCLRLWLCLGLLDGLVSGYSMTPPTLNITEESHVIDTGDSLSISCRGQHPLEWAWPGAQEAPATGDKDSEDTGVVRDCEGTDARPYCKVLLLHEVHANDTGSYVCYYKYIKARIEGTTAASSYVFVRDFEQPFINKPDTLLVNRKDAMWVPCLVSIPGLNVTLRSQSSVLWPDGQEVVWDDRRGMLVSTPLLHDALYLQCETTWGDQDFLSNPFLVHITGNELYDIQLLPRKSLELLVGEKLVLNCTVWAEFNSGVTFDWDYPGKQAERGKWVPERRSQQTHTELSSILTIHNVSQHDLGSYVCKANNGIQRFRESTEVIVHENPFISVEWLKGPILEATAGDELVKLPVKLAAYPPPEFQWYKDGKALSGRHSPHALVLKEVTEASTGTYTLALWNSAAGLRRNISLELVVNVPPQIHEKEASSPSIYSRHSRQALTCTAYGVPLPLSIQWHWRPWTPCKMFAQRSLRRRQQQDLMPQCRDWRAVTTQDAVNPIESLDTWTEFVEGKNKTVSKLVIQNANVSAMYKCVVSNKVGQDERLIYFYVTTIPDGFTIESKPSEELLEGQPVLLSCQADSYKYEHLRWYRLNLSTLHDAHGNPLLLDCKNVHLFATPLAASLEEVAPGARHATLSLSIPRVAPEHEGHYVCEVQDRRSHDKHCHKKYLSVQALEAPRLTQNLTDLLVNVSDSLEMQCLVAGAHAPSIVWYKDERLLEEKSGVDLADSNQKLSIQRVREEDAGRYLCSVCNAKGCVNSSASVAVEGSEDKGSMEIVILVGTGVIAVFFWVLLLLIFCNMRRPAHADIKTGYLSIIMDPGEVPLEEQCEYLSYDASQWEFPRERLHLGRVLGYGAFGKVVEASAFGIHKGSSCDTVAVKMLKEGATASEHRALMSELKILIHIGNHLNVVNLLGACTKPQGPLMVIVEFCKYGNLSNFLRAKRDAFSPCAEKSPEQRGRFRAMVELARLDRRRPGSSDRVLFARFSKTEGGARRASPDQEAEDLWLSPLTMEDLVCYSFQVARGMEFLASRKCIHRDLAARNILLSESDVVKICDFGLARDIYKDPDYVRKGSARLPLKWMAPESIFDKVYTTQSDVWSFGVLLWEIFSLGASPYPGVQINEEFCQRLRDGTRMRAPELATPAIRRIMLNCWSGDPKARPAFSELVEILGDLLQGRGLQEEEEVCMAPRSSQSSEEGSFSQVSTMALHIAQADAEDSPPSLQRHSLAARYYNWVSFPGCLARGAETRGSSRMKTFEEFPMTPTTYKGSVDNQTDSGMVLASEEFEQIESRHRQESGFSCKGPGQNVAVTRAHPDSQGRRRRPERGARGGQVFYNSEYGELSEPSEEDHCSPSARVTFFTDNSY
UniProt P35968: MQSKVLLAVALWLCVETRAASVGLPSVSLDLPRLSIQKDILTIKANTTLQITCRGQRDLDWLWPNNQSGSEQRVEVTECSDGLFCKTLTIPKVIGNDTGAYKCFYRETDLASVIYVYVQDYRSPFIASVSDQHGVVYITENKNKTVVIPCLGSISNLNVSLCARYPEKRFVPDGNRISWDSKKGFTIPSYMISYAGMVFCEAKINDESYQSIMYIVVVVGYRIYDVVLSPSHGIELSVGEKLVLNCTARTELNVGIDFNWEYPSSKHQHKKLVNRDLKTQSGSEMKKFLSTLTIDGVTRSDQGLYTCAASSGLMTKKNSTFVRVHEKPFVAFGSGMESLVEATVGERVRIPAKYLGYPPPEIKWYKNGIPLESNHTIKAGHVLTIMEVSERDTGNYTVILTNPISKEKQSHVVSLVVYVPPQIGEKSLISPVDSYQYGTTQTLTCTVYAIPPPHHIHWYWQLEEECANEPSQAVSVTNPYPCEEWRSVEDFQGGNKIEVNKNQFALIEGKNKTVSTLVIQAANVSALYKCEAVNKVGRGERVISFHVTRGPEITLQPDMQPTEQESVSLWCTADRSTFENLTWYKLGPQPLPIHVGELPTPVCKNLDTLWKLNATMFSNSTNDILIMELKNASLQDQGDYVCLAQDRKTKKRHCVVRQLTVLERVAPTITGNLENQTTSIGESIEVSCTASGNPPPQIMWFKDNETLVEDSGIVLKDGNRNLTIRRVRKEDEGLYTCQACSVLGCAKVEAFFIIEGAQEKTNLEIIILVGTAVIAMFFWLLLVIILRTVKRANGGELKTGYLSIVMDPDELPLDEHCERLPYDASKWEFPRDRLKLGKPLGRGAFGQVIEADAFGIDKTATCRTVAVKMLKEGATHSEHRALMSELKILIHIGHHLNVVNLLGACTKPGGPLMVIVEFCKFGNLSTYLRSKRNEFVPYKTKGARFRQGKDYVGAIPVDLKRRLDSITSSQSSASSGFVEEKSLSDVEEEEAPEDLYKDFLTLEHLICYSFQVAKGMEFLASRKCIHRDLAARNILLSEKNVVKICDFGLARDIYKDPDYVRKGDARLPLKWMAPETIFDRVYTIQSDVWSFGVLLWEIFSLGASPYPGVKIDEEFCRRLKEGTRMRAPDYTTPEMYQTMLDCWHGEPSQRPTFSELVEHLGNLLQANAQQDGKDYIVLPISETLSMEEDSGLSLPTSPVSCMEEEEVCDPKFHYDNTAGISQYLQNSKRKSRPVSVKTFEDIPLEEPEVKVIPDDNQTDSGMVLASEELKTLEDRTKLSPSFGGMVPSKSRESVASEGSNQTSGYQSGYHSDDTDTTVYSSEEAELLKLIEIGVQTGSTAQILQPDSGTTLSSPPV

In ChEMBL document CHEMBL1148542, “Synthesis of a novel biotin-tagged photoaffinity probe for VEGF receptor tyrosine kinases” (Bioorg Med Chem Lett, 2006):

Target: Vascular endothelial growth factor receptor (Homo sapiens, UniProt P17948+P35916+P35968)
Assay: Inhibitory activity against VEGF-stimulated proliferation in HUVEC
Assay type: functional

Compound `COc1cc2ncnc(Nc3ccc(Cl)cc3F)c2cc1OC` has an IC50 of 1000 nM.
